Values of other authors, collected in patent publication US8034843B2, “Compositions comprising cannabinoids for treatment of nausea, vomiting, emesis, motion sickness or like conditions” (priority 2002, dated 2011).

Protein sequences, listed by entry. Tags and fused reporters are not part of them.
UniProt P21554, whole entry, species assumed: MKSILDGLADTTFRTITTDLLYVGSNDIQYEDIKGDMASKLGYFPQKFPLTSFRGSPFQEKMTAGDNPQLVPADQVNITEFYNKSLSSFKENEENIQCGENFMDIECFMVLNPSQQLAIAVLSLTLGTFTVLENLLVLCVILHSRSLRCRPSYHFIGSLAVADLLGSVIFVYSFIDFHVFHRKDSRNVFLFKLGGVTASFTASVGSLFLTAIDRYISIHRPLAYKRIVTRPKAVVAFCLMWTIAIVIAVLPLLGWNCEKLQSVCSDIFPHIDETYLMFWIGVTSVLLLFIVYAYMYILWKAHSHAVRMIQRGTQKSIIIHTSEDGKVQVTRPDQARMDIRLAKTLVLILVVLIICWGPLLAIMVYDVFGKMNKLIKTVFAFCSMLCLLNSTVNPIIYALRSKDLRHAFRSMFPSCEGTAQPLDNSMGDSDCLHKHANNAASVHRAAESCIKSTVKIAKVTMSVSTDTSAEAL

Target: CB1 (Brain receptors) (Homo sapiens, UniProt P21554)
Settings: cited from earlier work

C=C(C)[C@@H]1CCC(C)=C[C@H]1c1c(O)cc(CCCCC)cc1O [CBD, cannabidiol]
binding to CB1 receptors: relatively inactive
